Measured values as given in patent EP4790062A1, “PHAGE PARTICLE COMPLEX, PREPARATION METHOD THEREFOR, AND USE THEREOF” (Pingshan Translational Medicine Center, Shenzhen Bay …, priority 2023, dated 2025).

Molecular target: T1, PLpro protein (Severe acute respiratory syndrome coronavirus 2, UniProt P0DTD1)
T1 construct: mixed with PLpro protein (0.1µM) in experimental buffer; His tag; made in house
Test: biochemical
Set-up: species or system SARS CoV-2

Q: Which IC50 does the source give for `CC(=O)NCC(=O)N[C@H]1CC[S+](C)Cc2cc3cc(c2)C[S+](C)CC[C@H](NC(=O)[C@H](CCC(=O)O)NC(=O)[C@H](Cc2c[nH]c4ccccc24)NC(=O)[C@H](CC(N)=O)NC(=O)[C@H](CCC(N)=O)NC(=O)[C@H](CCCNC(=N)N)NC(=O)[C@H](C(C)C)NC1=O)C(=O)N[C@@H](CCC(N)=O)C(=O)N[C@@H](CO)C(=O)N[C@@H](CO)C(=O)N[C@@H](Cc1c[nH]cn1)C(=O)N[C@@H](CC(N)=O)C(=O)N[C@@H](CCCNC(=N)N)C(=O)N[C@H](C(N)=O)CC[S+](C)C3` (stereo partly shown) [Peptide W6] here?
A: 7.06 µM
